Yeast mating assay B: variants of the scFv Ab-14

Reference: Li et al. 2023, doi:10.1038/s41467-023-39022-2. File: FLAb, binding data.

Binding partner: SARS-CoV-2 spike HR2 peptide, sequence PDVDLGDISGINAS.

Ab-14 is the parent antibody, in scFv form: VH, then a (GGGGS)3 linker, then VL. The heavy chain is unchanged in all variants.
VH: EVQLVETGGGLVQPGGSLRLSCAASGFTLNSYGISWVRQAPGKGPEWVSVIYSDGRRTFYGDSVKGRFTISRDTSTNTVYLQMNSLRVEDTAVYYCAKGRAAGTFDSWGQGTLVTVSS
VL: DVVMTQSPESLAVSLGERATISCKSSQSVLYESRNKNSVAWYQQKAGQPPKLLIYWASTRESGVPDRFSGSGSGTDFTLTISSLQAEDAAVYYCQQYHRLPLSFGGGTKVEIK

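Phage display of a naive human antibody library on the peptide gave the parent. The variants were designed computationally from a first round of random CDR variants and then made and measured. Group labels follow the data file (Ctrl: baseline library sampled from a position-specific scoring matrix, with some repeated check sequences; En: ensemble of fine-tuned language models; GP: Gaussian process model; HC: hill climbing; Gen: genetic algorithm; Gibbs: Gibbs sampling; a sequence that several methods proposed may carry one label only). The assay is AlphaSeq: two haploid yeast populations carry antibody and antigen on their surface. The frequency of each diploid, read from paired DNA barcodes, reflects how well the two displayed proteins bind. The ratio of observed to expected reads was calibrated, replicate by replicate, on BCL2-family standards whose Kd was known from biolayer interferometry. The assay was run in six technical replicates.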

Each variant is given by its three light chain CDRs, as the data file delimits them; those of the parent are KSSQSVLYESRNKNSVA, WASTRES, QQYHRLPLS. Affinities are written as log10 Kd with Kd in nM; a lower number is a better binder. Averages over replicates are reported, and they cover detected replicates only. Where no diploid with the target was found in any replicate, the entry reads "nd": below detection, most likely a poor binder, though not proof of it. Entries are sorted by rising average, undetected variants last. Of ten entries with the parent sequence, four were seen in most replicates (averages 0.34 to 2.37), three in one and three in none, so single entries are noisy. The authors' rule: three or more of the six replicates give a measured affinity, fewer mean a poor binder. Three control strains display no target. For all light chain designs, 4% of the pairings with them gave a signal, with a median of 2.64 and one signal in twenty below 1.59, so weak values seen in few replicates may be background. Also given: how often the same scFv was detected with the empty control strains. A sequence measured in both rounds can read differently, since the two assays cover different ranges.

CDR-L1	CDR-L2	CDR-L3	group	mean, log10 nM	detected	control signals
KLSQSVLYEERNKNSVA	QASQRES	QQYHRLPLS	GP_Gen	-1.10	6 of 6	0 of 18
KLSQSVLYESRNQNSVA	EASTRES	QQYHRLPLS	GP_Gen	-0.64	6 of 6	0 of 18
ALSQSSDMTSRNKNSVA	DLSTREN	QQYHRLPLS	En_HC	-0.53	6 of 6	0 of 18
KLSQSFLYESRNKNSVA	NASTREQ	QQYHRLPLS	GP_Gen	-0.42	6 of 6	1 of 18
KVSQSWLYESRNKNSVA	NASTRES	QQYHRLPLM	GP_Gen	-0.39	6 of 6	2 of 18
KMPQSVLYESRNKNSVA	EASTRES	QQYHRLPLS	GP_Gen	-0.29	6 of 6	1 of 18
KLSQSWLYESRNKNSVA	EASQRES	QDYHRLPLS	GP_Gen	-0.25	6 of 6	0 of 18
KSGQGVLMESRNWNSVA	GASTRES	QQYHRLPLS	GP_HC	-0.24	6 of 6	0 of 18
KVEQSELYESRNKNAVA	NASQRES	QQYHRLPLS	GP_Gen	-0.18	6 of 6	0 of 18
KSQQSVLYESRNKNNVA	EASTRED	QQYHRLPLS	GP_HC	-0.18	6 of 6	2 of 18
KNSQSVVYDSRNKNSVA	GATTRES	QQYHRLPLS	Ctrl	-0.18	6 of 6	1 of 18
KSPQSFLYESRNVNSVA	GASTRES	QQYHRLPLS	GP_HC	-0.14	6 of 6	0 of 18
KLRQSTLYESRNQNSVA	QASTRES	QQYHRLPLS	GP_HC	-0.14	6 of 6	0 of 18
KISQSVLNESRNKNSVA	DASTRES	QQYHRLPLS	GP_HC	-0.08	6 of 6	0 of 18
ALRQKGFELHGDRQNIA	HSDTRAA	QQYSMLPLA	En_Gibbs	0.01	6 of 6	1 of 18
KLSQSMGYESRNKNSVA	DASTRES	QQYHRLPLS	GP_Gen	0.02	6 of 6	4 of 18
SLQTDYSIAQDRWSNVA	HADQREA	QQYFRLPIV	En_Gibbs	0.07	6 of 6	1 of 18
NLGQKMALITEQRQQIA	DSTVRED	QQYSRLPLT	En_Gibbs	0.09	6 of 6	2 of 18
KSSGSFLYESRNFNSVA	GASTRES	QQYHRLPLS	GP_HC	0.10	6 of 6	0 of 18
KISQSVGYQDRNKNSVA	NAQQRMQ	QQYHRLPLS	GP_Gibbs	0.14	6 of 6	0 of 18
KVSEFMRGLHQRKDSIA	DMVTRSN	QQYDRLPLS	En_Gen	0.16	6 of 6	1 of 18
KSSQSVKFESRNKNSVA	DASTRED	QQYHRLPLS	GP_HC	0.20	6 of 6	1 of 18
AAQQSELYEDRNQNSVA	SASQRLS	QQYHRLPLS	GP_Gibbs	0.25	6 of 6	0 of 18
KVEQSMGYESRNQNSVA	EASHRES	QQYHRLPLW	GP_Gibbs	0.31	6 of 6	1 of 18
KLSQSHLYESRNKNSVA	HASTRES	QQYHRLPLS	GP_Gen	0.41	6 of 6	0 of 18
KSSQSVGGEQRNKNSVA	DASTRES	QQYHRLPLS	GP_HC	0.42	6 of 6	0 of 18
KSSQSVGHESRNGNSVA	DASTRES	QQYHRLPLS	Ctrl	0.44	6 of 6	0 of 18
HMSDSIEKMASIARNIA	DETTLAM	QQYYRLPLS	En_Gibbs	0.44	6 of 6	0 of 18
KLSQSELYESRNKNSVA	QASQRES	QQYHRLPLS	GP_Gen	0.44	6 of 6	1 of 18
KLTSVTGSEKVRGNNVA	EMETREK	QQYNRLPLS	En_Gen	0.48	6 of 6	2 of 18
KSLWSVLYESMNKNSVA	HASTRED	QQYHRLPLS	GP_HC	0.63	6 of 6	0 of 18
KISQTVLYQGRLMNAVA	QMSTREN	QQYDRLPLS	En_HC	0.64	6 of 6	0 of 18
HLYQSELYESRWKNSVA	NASTRLS	QQYHRLPLS	GP_Gibbs	0.69	6 of 6	1 of 18
HMSALTLQGMRLRNSVA	QMTTREN	QQYDHLPLA	En_Gen	0.80	6 of 6	0 of 18
MMSQVTGMESRHRNNVA	QTSTRES	QQYDRLPLI	En_Gen	0.82	6 of 6	1 of 18
KSGQSVLYESRNKNSVA	AASTRES	QQYHRLPLS	Ctrl	0.86	6 of 6	2 of 18
MISTVMNQLTHEGNNVA	DLQEREK	QQYFRLPLS	En_Gen	0.89	6 of 6	1 of 18
KISSLTNYESVNKNSVA	EMSTRPS	QSYHRLPLS	En_HC	1.05	6 of 6	0 of 18
QINMEMYHDLDDAQNVA	DAMTEVK	QQYNRLPLS	En_Gibbs	1.13	6 of 6	1 of 18
KLQQSVPYESRNKNSVA	NASTRCS	QQYHRLPLS	GP_Gen	1.14	6 of 6	0 of 18
MISNVMNTLTREGNNVA	DLAERER	QQYFRLPLS	En_Gen	1.40	6 of 6	1 of 18
HVSPSVEYESRNKNSVA	NASTRES	QQYHRLPLS	GP_HC	1.43	6 of 6	0 of 18
MISQLYNMGQFAINSVA	QAVTRNE	QQYDRLPLM	En_Gen	1.44	2 of 6	0 of 18
KSSYLDLYESRNKNSVA	WANKRES	QQYHRLPLE	Ctrl	1.54	6 of 6	3 of 18
KSSQSQLYESRNKNSVA	HAGKRES	QQYHILPLS	Ctrl	1.69	6 of 6	1 of 18
TLGSQPTEMRDNKHAVA	DDEARTR	QQYMRLPLS	En_Gibbs	1.69	5 of 6	0 of 18
KLRQSTDYESRNQNSVA	WASTRES	QQYHRLPLS	GP_HC	1.71	3 of 6	0 of 18
KIRVQQYSQSEMESNIA	QESVRHQ	QQYFHLPLS	En_Gibbs	1.72	4 of 6	1 of 18
KSSQSVCYESRNKNSVA	WASTRES	QQYFVLPLS	Ctrl	1.77	1 of 6	0 of 18
KSSQSVLYESENKNSVA	WASFRES	QQYHRLPLS	Ctrl	1.79	6 of 6	2 of 18
KSSQSVLYESRNKNSVA	RASIRES	QQYHRLQLS	Ctrl	1.89	1 of 6	0 of 18
MISQLYNMGQFAINSVA	QAETRNE	QQYDRLPLM	En_Gen	2.06	3 of 6	0 of 18
TISQMTSWMSNVKNNVA	EVSTREN	QQYDRLPLS	En_Gen	2.09	6 of 6	2 of 18
KNSQSVLYESRNKNSVA	WASTRES	QQYHRLPLS	Ctrl	2.18	3 of 6	0 of 18
VISELYNQATGMRNNVA	NNATRED	QQYDRLPLS	En_Gen	2.22	6 of 6	2 of 18
KSSGSVLYESRNKNHVA	WASTRES	QQYHRLPLS	Ctrl	2.27	1 of 6	0 of 18
KLSATYRFESQNKSNIA	EMTTREE	QCYHRLPLS	En_HC	2.45	5 of 6	0 of 18
KSSQSVLYESRNKNSVA	WASTRES	QAYHRLPLE	Ctrl	2.51	6 of 6	0 of 18
MIAESVGYQSRNKNSVA	DNSTREH	QCYDRLPLS	En_HC	2.51	6 of 6	1 of 18
QISMSVGMTSFNKNSVA	ENSTREN	QQYDRLPLS	En_HC	2.78	6 of 6	1 of 18
KSSQSVLYESKNKNSVA	WASVRES	QQYHRWPLS	Ctrl	3.30	1 of 6	1 of 18
KSSQSTLYESRNKNSVA	WGSTRES	QQYRRLPLS	Ctrl	nd	0 of 6	0 of 18
KFQQESNNMNDNQNSVA	DESMVEY	QHYWRLPLT	En_Gibbs	nd	0 of 6	0 of 18
KSSQSVLGESRNKNSVA	WASTRPV	QQQHRLPLS	Ctrl	nd	0 of 6	0 of 18
KSIQSTLYESRNKNSVA	WASTRES	QQVHRLPLS	Ctrl	nd	0 of 6	1 of 18

The 10 strongest on average among those seen in every replicate, once more:

{"CDR-L1": "KLSQSVLYEERNKNSVA", "CDR-L2": "QASQRES", "CDR-L3": "QQYHRLPLS", "group": "GP_Gen", "mean, log10 nM": "-1.10", "detected": "6 of 6", "control signals": "0 of 18"}
{"CDR-L1": "KLSQSVLYESRNQNSVA", "CDR-L2": "EASTRES", "CDR-L3": "QQYHRLPLS", "group": "GP_Gen", "mean, log10 nM": "-0.64", "detected": "6 of 6", "control signals": "0 of 18"}
{"CDR-L1": "ALSQSSDMTSRNKNSVA", "CDR-L2": "DLSTREN", "CDR-L3": "QQYHRLPLS", "group": "En_HC", "mean, log10 nM": "-0.53", "detected": "6 of 6", "control signals": "0 of 18"}
{"CDR-L1": "KLSQSFLYESRNKNSVA", "CDR-L2": "NASTREQ", "CDR-L3": "QQYHRLPLS", "group": "GP_Gen", "mean, log10 nM": "-0.42", "detected": "6 of 6", "control signals": "1 of 18"}
{"CDR-L1": "KVSQSWLYESRNKNSVA", "CDR-L2": "NASTRES", "CDR-L3": "QQYHRLPLM", "group": "GP_Gen", "mean, log10 nM": "-0.39", "detected": "6 of 6", "control signals": "2 of 18"}
{"CDR-L1": "KMPQSVLYESRNKNSVA", "CDR-L2": "EASTRES", "CDR-L3": "QQYHRLPLS", "group": "GP_Gen", "mean, log10 nM": "-0.29", "detected": "6 of 6", "control signals": "1 of 18"}
{"CDR-L1": "KLSQSWLYESRNKNSVA", "CDR-L2": "EASQRES", "CDR-L3": "QDYHRLPLS", "group": "GP_Gen", "mean, log10 nM": "-0.25", "detected": "6 of 6", "control signals": "0 of 18"}
{"CDR-L1": "KSGQGVLMESRNWNSVA", "CDR-L2": "GASTRES", "CDR-L3": "QQYHRLPLS", "group": "GP_HC", "mean, log10 nM": "-0.24", "detected": "6 of 6", "control signals": "0 of 18"}
{"CDR-L1": "KVEQSELYESRNKNAVA", "CDR-L2": "NASQRES", "CDR-L3": "QQYHRLPLS", "group": "GP_Gen", "mean, log10 nM": "-0.18", "detected": "6 of 6", "control signals": "0 of 18"}
{"CDR-L1": "KSQQSVLYESRNKNNVA", "CDR-L2": "EASTRED", "CDR-L3": "QQYHRLPLS", "group": "GP_HC", "mean, log10 nM": "-0.18", "detected": "6 of 6", "control signals": "2 of 18"}